## Cyclic peptide permeability, from CycPeptMPDB

Data: CycPeptMPDB; original report Townsend et al. 2020, doi:10.26434/chemrxiv.13335941.v1.

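Lipid, pH, incubation time, direction and concentration are not recorded in the data file. The list need not hold all peptides of the study. Peptides that the database sets to -10, its floor, are left out.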

PAMPA measures passive passage through an artificial lipid membrane.
P is given in units of 10^-6 cm/s (from log10 values with two decimals); larger means faster passage.

{"smiles": "CC(C)C[C@@H]1C(=O)N[C@@H](Cc2ccccc2)C(=O)N2CCC[C@H]2C(=O)N(C)[C@H](C)C(=O)N[C@H](CC(C)C)C(=O)N(C)[C@@H](CC(C)C)C(=O)N2CCC[C@@H]2C(=O)N1C", "PAMPA (10^-6 cm/s)": "6.6"}
{"smiles": "CC(C)C[C@H]1C(=O)N(Cc2ccccc2)CC(=O)N2CCC[C@H]2C(=O)N(Cc2ccccc2)CC(=O)N[C@@H](Cc2ccccc2)C(=O)N2CCC[C@H]2C(=O)N(C)[C@H](C)C(=O)N1C", "PAMPA (10^-6 cm/s)": "1.2"}
{"smiles": "CC(C)C[C@@H]1NC(=O)[C@H]2CCCN2C(=O)[C@@H](CC(C)C)NC(=O)[C@H](CC(C)C)N(C)C(=O)[C@H](C)N(C)C(=O)[C@H](Cc2ccccc2)NC1=O", "PAMPA (10^-6 cm/s)": "1.3"}
{"smiles": "CC(C)C[C@@H]1NC(=O)C[C@H](Cc2ccccc2)NC(=O)[C@H](Cc2ccccc2)NC(=O)[C@H](CC(C)C)N(C)C(=O)[C@@H]2CCCN2C(=O)[C@@H](CC(C)C)NC1=O", "PAMPA (10^-6 cm/s)": "8.9"}
{"smiles": "CCCN1CC(=O)N[C@H](CC(C)C)C(=O)N(Cc2ccccc2)CC(=O)N2CCC[C@@H]2C(=O)N[C@H](CC(C)C)C(=O)N[C@@H](Cc2ccccc2)C(=O)N2CCC[C@@H]2C1=O", "PAMPA (10^-6 cm/s)": "2.5"}
{"smiles": "CC(C)C[C@H]1NC(=O)[C@H](C)NC(=O)[C@H](Cc2ccccc2)NC(=O)CN(Cc2ccccc2)C(=O)[C@@H]2CCCN2C(=O)[C@@H](CC(C)C)NC1=O", "PAMPA (10^-6 cm/s)": "1.3"}
{"smiles": "CC(C)C[C@H]1NC(=O)[C@H](CC(C)C)N(C)C(=O)[C@@H](C)NC(=O)[C@H](Cc2ccccc2)NC(=O)[C@H](CC(C)C)N(C)C(=O)[C@@H]2CCCN2C1=O", "PAMPA (10^-6 cm/s)": "4.3"}
{"smiles": "CCCN1CC(=O)N(C)[C@H](CC(C)C)C(=O)N(C)[C@@H](CC(C)C)C(=O)N2CCC[C@@H]2C(=O)N(C)[C@@H](CC(C)C)C(=O)N[C@@H](Cc2ccccc2)C1=O", "PAMPA (10^-6 cm/s)": "8.3"}
{"smiles": "CC(C)C[C@@H]1NC(=O)[C@@H](C)NC(=O)[C@H](Cc2ccccc2)NC(=O)[C@H](CC(C)C)N(C)C(=O)[C@@H]2CCCN2C(=O)[C@@H](CC(C)C)N(C)C1=O", "PAMPA (10^-6 cm/s)": "1.7"}
{"smiles": "CC(C)C[C@@H]1NC(=O)[C@@H](C)N(C)C(=O)[C@H]2CCCN2C(=O)[C@H](Cc2ccccc2)NC(=O)[C@@H](CC(C)C)N(C)C(=O)[C@@H]2CCCN2C(=O)[C@@H](CC(C)C)NC1=O", "PAMPA (10^-6 cm/s)": "2.3"}
{"smiles": "CC(C)C[C@@H]1C(=O)N(Cc2ccccc2)CC(=O)N2CCC[C@H]2C(=O)N[C@H](CC(C)C)C(=O)N[C@@H](Cc2ccccc2)C(=O)N2CCC[C@@H]2C(=O)N[C@H](C)C(=O)N1C", "PAMPA (10^-6 cm/s)": "3.2"}
{"smiles": "CC(C)C[C@@H]1C(=O)N[C@H](CC(C)C)C(=O)N2CCC[C@H]2C(=O)N[C@H](CC(C)C)C(=O)N[C@@H](Cc2ccccc2)C(=O)N(C)[C@H](C)C(=O)N1C", "PAMPA (10^-6 cm/s)": "5.6"}
{"smiles": "CCCN1CC(=O)N(C)[C@@H](CC(C)C)C(=O)N(C)[C@H](CC(C)C)C(=O)N2CCC[C@H]2C(=O)N(C)[C@H](CC(C)C)C(=O)N[C@@H](Cc2ccccc2)C(=O)N2CCC[C@@H]2C1=O", "PAMPA (10^-6 cm/s)": "17"}
{"smiles": "CC(C)C[C@@H]1NC(=O)[C@@H]2CCCN2C(=O)[C@@H](CC(C)C)NC(=O)[C@@H](CC(C)C)NC(=O)[C@@H](C)NC(=O)[C@@H]2CCCN2C(=O)[C@H](Cc2ccccc2)NC1=O", "PAMPA (10^-6 cm/s)": "1.4"}
{"smiles": "CC(C)C[C@@H]1C(=O)N[C@@H](Cc2ccccc2)C(=O)N2CCC[C@@H]2C(=O)N(C)[C@@H](C)C(=O)N(Cc2ccccc2)CC(=O)N[C@H](CC(C)C)C(=O)N2CCC[C@H]2C(=O)N1C", "PAMPA (10^-6 cm/s)": "3.6"}

2 of these entries, quoted again:

{"smiles": "CCCN1CC(=O)N(C)[C@@H](CC(C)C)C(=O)N(C)[C@H](CC(C)C)C(=O)N2CCC[C@H]2C(=O)N(C)[C@H](CC(C)C)C(=O)N[C@@H](Cc2ccccc2)C(=O)N2CCC[C@@H]2C1=O", "PAMPA (10^-6 cm/s)": "17"}
{"smiles": "CC(C)C[C@@H]1C(=O)N(Cc2ccccc2)CC(=O)N2CCC[C@H]2C(=O)N[C@H](CC(C)C)C(=O)N[C@@H](Cc2ccccc2)C(=O)N2CCC[C@@H]2C(=O)N[C@H](C)C(=O)N1C", "PAMPA (10^-6 cm/s)": "3.2"}